These are literature values, as cited in article PMC8882856.

SMILES strings stand for the structures.

One series deals with human β3‐adrenoceptor. As to conditions: read-out: β3 affinity; ref [31], [32]; cited from earlier work.
For a further series, the target named is human α1A‐adrenoceptor. The conditions noted are these: read-out: α1A‐adrenoceptor affinity; identical whole cell method; ref [33]; cited from earlier work.

Regarding `COc1ccccc1OCCNCC(O)COc1cccc2[nH]c3ccccc3c12` (stereo not drawn) [carvedilol], the Kd was 5 nM on human β3‐adrenoceptor and 4 nM on human α1A‐adrenoceptor. `CC(CCc1ccccc1)NCC(O)c1ccc(O)c(C(N)=O)c1` (stereo not drawn) [labetolol]: the Kd on human α1A‐adrenoceptor was 47 nM.
